From PubChem BioAssay AID588692 (Broad Institute, 2011) come the findings set out here.

This is a selection; strong and weak results do not stand in their true shares. Activity calls are given as the source filed them.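 How the source made its calls: active means mean luciferase reporter signal, scaled so untreated is 0 and the glycosylation-blocking control 100, at or above a set limit in every replicate; inconclusive means mean reaches the limit but not every replicate does; inactive means mean below the limit.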

The assay can be described thus: increase of ERlucT glycosylation luciferase signal, primary screen, N-linked glycosylation inhibitor project, D54 ERlucT cells, luminescence, set 2 (AID 588692).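 Further: luciferase carries N-glycosylation sites so blocking glycosylation raises the light; 0% = median of neutral control wells and 100% = median of 100 nM tunicamycin wells.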 The settings on record: 24 h, at 12.5 µM, stronger effect = higher value, percent of 100 nM tunicamycin response.
With `COc1ccc(C(c2nnnn2C2CCCC2)N2CCC(n3c(=O)[nH]c4ccccc43)CC2)cc1` (stereo unspecified), the reporter increase was inactive: -3.19%.
The same measure for `CCCCn1nnnc1C(c1cccs1)N1CCC(n2c(=O)[nH]c3ccccc32)CC1` (stereo unspecified): inactive: -2.34%; for `CCCCn1nnnc1C(CC)N1CCC(n2c(=O)[nH]c3ccccc32)CC1` (stereo unspecified): inactive: 3.84%.
As for `O=C(NCC1(N2CCCCC2)CCCCC1)c1cccs1`, the reporter increase is inactive: -5.28%.
As to `O=C(NCC1(N2CCCCC2)CCCCC1)c1ccc(=O)[nH]c1`, the reporter increase was inactive: -3.45%.
The same measure for `CCC(c1nnnn1C1CCCC1)N1CCC(n2c(=O)[nH]c3ccccc32)CC1` (stereo unspecified): inactive: -0.241%; for `COc1ccc(C(=O)NCC2(N3CCCCC3)CCCCC2)c(OC)c1OC`: inactive: -3.54%; for `CC(C)(C)OC(=O)N1CCC(N(C(=O)c2ccccc2)c2ccc(F)cc2)CC1`: inactive: -2.15%.
For the compound `COc1ccc(C(=O)NCC2(N3CCCCC3)CCCCC2)cc1`, the reporter increase was inactive: -4.05%.
The same measure for `Cc1cccc(NC2(C#N)CCN(Cc3ccccc3)CC2)c1`: inactive: 1.26%.
As for `CSc1ccccc1C(=O)NCC1(N2CCCCC2)CCCCC1`, the reporter increase was inactive: -4.28%.
For the compound `O=C(NCC1(N2CCOCC2)CCCCC1)c1cc2ccccc2o1`, the reporter increase is inactive: -4.11%.
Consider `Cc1cc(C)cc(N(C(=O)c2ccccc2)C2CCN(C(=O)OC(C)(C)C)CC2)c1`, for which the reporter increase was inactive: -2.39%.
`O=c1[nH]c2ccccc2n1C1CCN(C(c2ccccc2OC(F)(F)F)c2nnnn2C2CCCCC2)CC1` (stereo unspecified): the reporter increase is inactive: -2.8%.
The same measure for `O=C(NCC1(N2CCCCC2)CCCCC1)c1ccc(Cl)nc1`: inactive: -6.21%; for `CCCCn1nnnc1C(c1ccc(OC)cc1)N1CCC(n2c(=O)[nH]c3ccccc32)CC1` (stereo unspecified): inactive: 0.307%.
The figure for `CCOC(=O)N1CCC(Nc2ccc(OC)cc2)CC1` is inactive: -0.66%; for `COc1ccc(Cl)cc1C(=O)NCC1(N2CCOCC2)CCCCC1` it is inactive: -0.96%.
Turning to `O=c1[nH]c2ccccc2n1C1CCN(C(c2cc3ccccc3o2)c2nnnn2C2CCCCC2)CC1` (stereo unspecified), the reporter increase is inactive: -1.67%.
With `O=C(OC1CN2CCC1CC2)C1c2ccccc2Oc2ccccc21` (stereo unspecified), the reporter increase was inactive: 0.996%.
The figure for `O=C(NCC1(N2CCCCC2)CCCCC1)c1ccc(Cl)s1` is inactive: -5.26%; for `N#CC1(Nc2ccccc2)CCN(Cc2ccccc2)CC1` it is inactive: -1.31%.
The figure for `CCOc1ccc(C)cc1CN(CCCl)CCCl` is inactive: -0.171%; for `O=C1CCN(Cc2ccccc2)CC1` it is inactive: 1.17%; for `CC(C)(C)n1nnnc1C(c1ccccc1)N1CCC(n2c(=O)[nH]c3ccccc32)CC1` (stereo unspecified) it is inactive: -1.64%.
Turning to `CCOC(=O)N1CCC(Nc2ccc(F)cc2)CC1`, the reporter increase was inactive: 0.786%.
As for `COc1ccc(NC2CCN(CCc3ccccc3)CC2)c(OC)c1`, the reporter increase was inactive: 1.82%.
The same measure for `O=C(NCC1(N2CCCCC2)CCCCC1)c1ccc(F)cc1`: inactive: -5.21%; for `CCCCOc1ccc(C(=O)NCC2(N3CCOCC3)CCCCC2)cc1`: inactive: -8.51%.
Consider `CCCCn1nnnc1C(c1cc2ccccc2o1)N1CCC(n2c(=O)[nH]c3ccccc32)CC1` (stereo unspecified), for which the reporter increase was inactive: -6.62%.
In the case of `O=P1(N(CCCl)CCCl)SCCCS1`, the reporter increase is inactive: 0.19%.
As for `O=c1[nH]c2ccccc2n1C1CCN(C(c2ccccc2)c2nnnn2C2CCCCC2)CC1` (stereo unspecified), the reporter increase was inactive: -3.83%.
The same measure for `O=c1[nH]c2ccccc2n1C1CCN(C(c2cccc3ccccc23)c2nnnn2C2CCCC2)CC1` (stereo unspecified): inactive: -10.4%; for `COc1cc(C(=O)NCC2(N(C)C)CCCCC2)ccc1OC(F)F`: inactive: -2.38%.
Regarding `CCOC(=O)N1CCC(Nc2cccc(C)c2)CC1`, the reporter increase is inactive: -0.0725%.
The same measure for `O=c1[nH]c2ccccc2n1C1CCN(C(c2ccnc3ccccc23)c2nnnn2C2CCCCC2)CC1` (stereo unspecified): inactive: -4.32%.
The same measure for `COc1cc(OC)cc(C(=O)NCC2(N3CCCCC3)CCCCC2)c1`: inactive: -5.18%; for `CCC(c1nnnn1C1CCCCC1)N1CCC(n2c(=O)[nH]c3ccccc32)CC1` (stereo unspecified): inactive: -1.64%; for `CC(=O)N(c1ccccc1)C1CCNCC1`: inactive: -1.31%.
Take `COc1cccc(C(c2nnnn2C2CCCCC2)N2CCC(n3c(=O)[nH]c4ccccc43)CC2)c1OC` (stereo unspecified): the reporter increase is inactive: -8.11%.
Consider `Cc1ccc(NC2(C#N)CCN(Cc3ccccc3)CC2)cc1`, for which the reporter increase is inactive: 1.06%.
`Fc1ccccc1NC1CCN(Cc2ccccc2)CC1`: the reporter increase is inactive: -0.25%.
In the case of `Cc1ccc(C(=O)NCC2(N3CCCCC3)CCCCC2)o1`, the reporter increase was inactive: -3.33%.
The same measure for `CC(C)(C)n1nnnc1C(c1ccnc2ccccc12)N1CCC(n2c(=O)[nH]c3ccccc32)CC1` (stereo unspecified): inactive: -5.62%.
The same measure for `COc1ccc(C(c2nnnn2C2CCCCC2)N2CCC(n3c(=O)[nH]c4ccccc43)CC2)cc1` (stereo unspecified): inactive: -3.07%; for `CCN1CCC(Nc2cccc(F)c2)CC1`: inactive: 1.76%; for `Cc1ccccc1NC1(C#N)CCN(Cc2ccccc2)CC1`: inactive: 1.59%.
The same measure for `Cn1c(=O)[nH]cc(N(CCCl)CCCl)c1=O`: inactive: 0.872%; for `CN(C)c1ccc(C(=O)NCC2(N3CCCCC3)CCCCC2)cc1`: inactive: -5.4%.
As to `O=C(NCC1(N2CCCCC2)CCCCC1)c1ccco1`, the reporter increase was inactive: -4.54%.
The figure for `CN1CCC(Nc2ccc(F)c(Cl)c2)CC1` is inactive: -1.29%.
Turning to `CCOc1ncccc1C(=O)NCC1(N2CCOCC2)CCCCC1`, the reporter increase is inactive: -2.73%.
With `CCCOc1ccc(C(=O)NCC2(N(C)C)CCCCC2)cc1`, the reporter increase was inactive: -1.61%.
On to `O=c1[nH]c2ccccc2n1C1CCN(C(c2cc3ccccc3o2)c2nnnn2C2CCCC2)CC1` (stereo unspecified), for which the reporter increase was inactive: -7.04%.
The figure for `O=C(O)C1(Nc2ccccc2)CCN(Cc2ccccc2)CC1` is inactive: -1.95%; for `CC(C)(C)OC(=O)N1CCC(Nc2ccccc2)CC1` it is inactive: 1.54%; for `CCC(CO)(C(=O)OC1CN2CCC1CC2)c1ccccc1` (stereo unspecified) it is inactive: -1.43%.
Consider `COc1cccc(C(=O)N(c2cc(C)cc(C)c2)C2CCN(C(=O)OC(C)(C)C)CC2)c1`, for which the reporter increase is inactive: -3.23%.
On to `COc1cc(OC)cc(C(=O)NCC2(N3CCOCC3)CCCCC2)c1`, for which the reporter increase was inactive: -3.63%.
The same measure for `COc1cccc(C(c2nnnn2C2CCCC2)N2CCC(n3c(=O)[nH]c4ccccc43)CC2)c1OC` (stereo unspecified): inactive: -4.07%; for `CN1CCC(Nc2ccc(Cl)cc2)CC1`: inactive: -1.56%.
With `O=C(NCC1(N2CCOCC2)CCCCC1)c1cc(Br)ccc1Cl`, the reporter increase was inactive: 1.48%.
The same measure for `COc1cc(C(=O)NCC2(N3CCOCC3)CCCCC2)cc(OC)c1C`: inactive: -2.43%.
`CCCCn1nnnc1C(c1ccccc1)N1CCC(n2c(=O)[nH]c3ccccc32)CC1` (stereo unspecified): the reporter increase was inactive: -3.89%.
In the case of `O=c1[nH]c2ccccc2n1C1CCN(C(c2ccnc3ccccc23)c2nnnn2C2CCCC2)CC1` (stereo unspecified), the reporter increase is inactive: -5.2%.
As for `COc1ccc(C(=O)NCC2(N3CCOCC3)CCCCC2)cc1OC`, the reporter increase was inactive: -8.97%.
The same measure for `O=c1[nH]c2ccccc2n1C1CCN(C(c2cccs2)c2nnnn2C2CCCCC2)CC1` (stereo unspecified): inactive: -0.674%.
In the case of `N/C(=N\O)c1c(N)no[n+]1[O-]`, the reporter increase was inactive: 1.91%.
For the compound `COc1cccc(C(c2nnnn2C(C)(C)C)N2CCC(n3c(=O)[nH]c4ccccc43)CC2)c1OC` (stereo unspecified), the reporter increase is inactive: -2.54%.
Take `CCOC(=O)N1CCC(Nc2ccc(C)cc2)CC1`: the reporter increase is inactive: 0.735%.
Consider `CCCCn1nnnc1C(c1cccc(OC)c1OC)N1CCC(n2c(=O)[nH]c3ccccc32)CC1` (stereo unspecified), for which the reporter increase is inactive: -5.37%.
`O=c1[nH]c2ccccc2n1C1CCN(C(c2cccs2)c2nnnn2C2CCCC2)CC1` (stereo unspecified): the reporter increase was inactive: -2.83%.
In the case of `O=C(OC1CN2CCC1CC2)C1c2ccccc2C=Cc2ccccc21` (stereo unspecified), the reporter increase is inactive: 2.62%.
The figure for `CC(C)(C)OC(=O)N1CCC(N(C(=O)c2ccccc2)c2ccc(Cl)cc2)CC1` is inactive: -4.33%; for `N#Cc1ccc(C(=O)NCC2(N3CCCCC3)CCCCC2)cc1` it is inactive: -6.12%; for `CCCN1CCC(Nc2cc(OC)cc(OC)c2)CC1` it is inactive: -2.78%.
Turning to `O=c1[nH]c2ccccc2n1C1CCN(C(c2ccccc2)c2nnnn2C2CCCC2)CC1` (stereo unspecified), the reporter increase is inactive: -1.71%.
The same measure for `Cc1cc(N(CCCl)CCCl)ccc1C=O`: inactive: -1.78%; for `c1ccc(CN2CCC(Nc3ccccc3)CC2)cc1`: inactive: -0.484%; for `CN(C)C1(CNC(=O)c2cccc(C#N)c2)CCCCC1`: inactive: -0.969%.
The figure for `CC(C)(C)n1nnnc1C(c1cccc2ccccc12)N1CCC(n2c(=O)[nH]c3ccccc32)CC1` (stereo unspecified) is inactive: -11%.
